{
  "source": "patent US20190192521A1",
  "about": "“Methods of Treating Arid1A-Mutated Cancers With HDAC6 Inhibitors and EZH2 Inhibitors” (The Wistar Institute of Anatomy and Biology, priority 2016, published 2019)",
  "target": "T1, human HDAC6 (Homo sapiens, UniProt Q9UBN7)",
  "T1 construct": "made in house",
  "T1 sequence (Q9UBN7 1-1215)": "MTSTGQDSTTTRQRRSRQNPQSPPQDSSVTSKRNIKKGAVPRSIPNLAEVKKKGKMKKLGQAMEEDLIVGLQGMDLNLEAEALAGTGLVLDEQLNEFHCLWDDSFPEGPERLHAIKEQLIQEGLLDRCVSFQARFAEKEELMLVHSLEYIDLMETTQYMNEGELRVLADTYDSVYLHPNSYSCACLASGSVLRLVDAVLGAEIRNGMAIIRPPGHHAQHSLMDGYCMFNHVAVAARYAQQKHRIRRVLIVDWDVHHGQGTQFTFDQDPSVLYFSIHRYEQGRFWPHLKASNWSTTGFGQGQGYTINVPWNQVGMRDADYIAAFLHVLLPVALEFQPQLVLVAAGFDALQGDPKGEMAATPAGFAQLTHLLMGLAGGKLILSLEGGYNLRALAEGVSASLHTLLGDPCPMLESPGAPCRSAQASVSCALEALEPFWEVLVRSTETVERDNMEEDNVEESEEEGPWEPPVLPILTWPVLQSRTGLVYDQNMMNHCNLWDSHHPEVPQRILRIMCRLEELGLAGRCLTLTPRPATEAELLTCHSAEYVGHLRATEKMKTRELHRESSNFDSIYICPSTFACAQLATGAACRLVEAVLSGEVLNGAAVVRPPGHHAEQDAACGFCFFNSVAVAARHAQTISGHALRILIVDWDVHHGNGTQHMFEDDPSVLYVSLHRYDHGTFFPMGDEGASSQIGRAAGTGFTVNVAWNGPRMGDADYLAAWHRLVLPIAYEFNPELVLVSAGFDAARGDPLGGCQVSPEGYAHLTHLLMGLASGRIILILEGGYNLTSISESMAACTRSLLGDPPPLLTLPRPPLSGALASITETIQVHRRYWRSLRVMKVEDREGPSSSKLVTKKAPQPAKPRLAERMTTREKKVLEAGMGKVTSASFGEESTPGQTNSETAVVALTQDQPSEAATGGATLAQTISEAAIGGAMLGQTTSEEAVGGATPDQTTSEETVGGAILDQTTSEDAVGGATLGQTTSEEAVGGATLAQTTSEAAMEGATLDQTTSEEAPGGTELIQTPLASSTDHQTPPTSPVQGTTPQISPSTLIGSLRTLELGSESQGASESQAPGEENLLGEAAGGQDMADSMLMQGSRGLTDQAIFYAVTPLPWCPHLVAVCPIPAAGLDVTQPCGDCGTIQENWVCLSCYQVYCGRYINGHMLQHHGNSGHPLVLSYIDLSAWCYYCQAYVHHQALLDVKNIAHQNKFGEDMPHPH",
  "experiment": "in vitro biochemical HDAC6 deacetylation assay (LC-MS)",
  "conditions": "10 μM inhibitor, 0.05 μM HDAC6, 100 μM substrate",
  "method": "Deacetylation reactions were detected by discontinuous liquid chromatography-mass spectrometry (LC-MS). The negative control assay was run in the presence of the HDAC6 inhibitor rocilinostat (ACY1215). All assays were performed in triplicates.\nIn vitro biochemical HDAC6 deacetylation assays were performed as follows. Activity assay with human HDAC6 was based on a discontinuous liquid chromatography-mass spectrometry (LC-MS) assay as reported in Hai and Christianson, 2016. Briefly, 0.05 μM of HDAC6 was incubated with 100 μM of substrate Ac-LHSGTAK(ac)SVT-COOH in HEPES buffer [20 mM HEPES (pH 7.5), 100 mM NaCl, 5 mM KCl, 1 mM MgCl2] for 20 min at room temperature, and the reaction was quenched by the addition of acetonitrile (equal volume to the reaction solution). The deacetylation reaction mixtures were detected by (LC-MS) using a Waters SQD equipped with an Acquity UPLC (Waters, Milford, Mass., USA) and quantified by using the standard curves generated from the mass signals of the corresponding deacetylated synthetic peptide (Ac-[…]-COOH). The assay was run in the presence of 10 μM of HDAC6 specific inhibitor ACY-1215 as a negative control. All the assays were performed in triplicates. The peptide was custom synthesized by Genscript. The human HDAC6 construct was expressed and purified as described in Hai and Christianson, 2016.",
  "data": [
    {"smiles": "O=C(CCCCCCNC(=O)c1cnc(N(c2ccccc2)c2ccccc2)nc1)NO", "note": "[rocilinostat, 2-(diphenylamino)-N-(7-(hydroxyamino)-7-oxoheptyl)pyrimidine-5-carboxamide]", "values": [
      {"measurement": "inhibition of HDAC6 deacetylation of p53K120Ac peptide", "value": "prevented HDAC6 from removing the p53K120Ac modification"},
      {"measurement": "inhibition of HDAC6 deacetylation of p53K120Ac peptide", "setting": "listed as ACY1215", "value": "blocked this activity"}
    ]}
  ]
}
